Experimental data taken from patent US6908919B2, “Substituted polycyclic aryl and heteroaryl pyrazinones useful for selective inhibition of the coagulation cascade” (Pharmacia Corporation, priority 1999, dated 2005).
pIC50: −log10 of the molar value.

Protein sequences, listed by entry. Tags and fused reporters are not part of them. Residues count along the entry.
UniProt P00761, 9-231: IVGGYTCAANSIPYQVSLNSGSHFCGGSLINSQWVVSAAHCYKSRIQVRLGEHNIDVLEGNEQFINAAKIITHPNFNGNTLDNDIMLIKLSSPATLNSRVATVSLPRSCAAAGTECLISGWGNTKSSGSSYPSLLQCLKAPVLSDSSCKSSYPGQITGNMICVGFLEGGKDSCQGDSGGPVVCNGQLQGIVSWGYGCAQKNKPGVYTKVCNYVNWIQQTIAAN

Molecular target: Trypsin (type IX from porcine pancreas) (Sus scrofa, UniProt P00761)
Assay: Trypsin Assay
Conditions: not given

First: N=C(N)c1ccc(CCC(=O)Cn2c(-c3cccc(N)c3)c(Cl)nc(NC3CCC3)c2=O)cc1 [Example 142]
Second: N=C(N)c1ccc(COCCn2c(-c3cccc(N)c3)c(Cl)nc(NC3CCC3)c2=O)cc1 [Example 140]
The pIC50 of the first is 0.97 log units higher: 6.90 for the first, 5.93 for the second.

Compared with `N=C(N)c1ccc(CNC(=O)Cn2c(-c3cc(N)nc(C(=O)O)c3)cnc(NC3CCC3)c2=O)cc1` [Example 120], `N=C(N)c1ccc(CNC(=O)Cn2c(-c3ccccc3N)cnc(NC3CCC3)c2=O)cc1` [Example 116] is 0.94 log units lower in pIC50: 7.66 for the first, 6.72 for the second. The first is the more potent here.

`CN(C)CC/N=C(\NCCN(C)C)c1ccc(CNC(=O)Cn2c(-c3cccc(N)c3)c(Cl)nc(NC3CCC3)c2=O)cc1` [Example 165] and `COCCNC(=N)c1ccc(CNC(=O)Cn2c(-c3cccc(N)c3)c(Cl)nc(NC3CCC3)c2=O)cc1` [Example 163] are within 0.2 log units of each other in pIC50: 4.08 for the first, 4.23 for the second.

`CC(C)Nc1nc(Cl)c(-c2cc(N)cc(C(=O)NC(C)c3ccccc3)c2)n(CC(=O)NCc2ccc(C(=N)N)cc2)c1=O` (stereo not shown) [Example 128-3] and `CC(C)Nc1nc(Cl)c(-c2cc(N)cc(C(=O)NCc3ccccc3)c2)n(CC(=O)NCc2ccc(C(=N)N)cc2)c1=O` [Example 128-9] are within 0.2 log units of each other in pIC50: 7.48 for the first, 7.39 for the second.

Compared with `CC(C)Nc1nc(Cl)c(-c2cc(N)cc(C(=O)NCc3ccc(C(C)(C)C)cc3)c2)n(CC(=O)NCc2ccc(C(=N)N)cc2)c1=O` [Example 128-7], `CC(C)Nc1nc(Cl)c(-c2cc(N)cc(C(=O)NCc3cccc(F)c3)c2)n(CC(=O)NCc2ccc(C(=N)N)cc2)c1=O` [Example 128-12] is 0.57 log units higher in pIC50: 6.64 for the first, 7.21 for the second. The second is the more potent here.

`CC(C)Nc1nc(Cl)c(-c2cc(N)cc(C(=O)NCc3ccccn3)c2)n(CC(=O)NCc2ccc(C(=N)N)cc2)c1=O` [Example 128-19] and `CC(C)Nc1nc(Cl)c(-c2cc(N)cc(C(=O)NCc3cccnc3)c2)n(CC(=O)NCc2ccc(C(=N)N)cc2)c1=O` [Example 128-18] are within 0.2 log units of each other in pIC50: 6.88 for the first, 7.03 for the second.

Compared with `COC(=O)c1cccc(Sc2ccc(N)cc2-c2c(Cl)nc(NC(C)C)c(=O)n2CC(=O)NCc2ccc(C(=N)N)cc2)c1` [Example 112], `CSc1ccc(N)cc1-c1c(Cl)nc(NC(C)C)c(=O)n1CC(=O)NCc1ccc(C(=N)N)cc1` [Example 111] is 0.94 log units lower in pIC50: 7.49 for the first, 6.55 for the second.

Going from `CC(C)Nc1nc(Cl)c(-c2cc(N)cc(C(=O)NC3CCCCCC3)c2)n(CC(=O)NCc2ccc(C(=N)N)cc2)c1=O` [Example 128-17] to `CC(C)Nc1nc(Cl)c(-c2cc(N)cc(C(=O)O)c2)n(CC(=O)NCc2ccc(C(=N)N)cc2)c1=O` [Example 123], the pIC50 falls from 7.30 to 7.05 (0.25 log units).

Compared with `CC(C)Nc1nc(Cl)c(-c2cccc(N)c2)n(CC(=O)NCC2CCC(C(=N)N)C=N2)c1=O` (stereo not shown) [Example 150], `CC(C)Nc1nc(Cl)c(-c2cccc(N)c2)n(CC(=O)NNc2ccc(C(=N)N)cc2)c1=O` [Example 157] is 0.50 log units higher in pIC50: 6.55 for the first, 7.05 for the second. The second is the more potent here.

`CC(C)Nc1nc(Cl)c(-c2cc(N)cc(C(=O)N(C)Cc3ccccc3)c2)n(CC(=O)NCc2ccc(C(=N)N)cc2)c1=O` [Example 128-2] and `CC(C)Nc1nc(Cl)c(-c2cc(N)cc(C(=O)NCc3ccccc3Cl)c2)n(CC(=O)NCc2ccc(C(=N)N)cc2)c1=O` [Example 128-10] are within 0.2 log units of each other in pIC50: 7.25 for the first, 7.29 for the second.

`COC(=O)c1cc(N)cc(-c2c(Cl)nc(NC3CCC3)c(=O)n2CC(=O)NCc2ccc(C(=N)N)cc2)c1` [Example 127] and `COC(=O)c1cc(N)cc(-c2c(Cl)nc(NC(C)C)c(=O)n2CC(=O)NCc2ccc(C(=N)N)cc2)c1` [Example 125] are within 0.2 log units of each other in pIC50: 7.52 for the first, 7.54 for the second.

`CC(C)CNC(=O)c1cc(N)cc(-c2c(Cl)nc(NC(C)C)c(=O)n2CC(=O)NCc2ccc(C(=N)N)cc2)c1` [Example 128-14] and `CC(C)Nc1nc(Cl)c(-c2cc(N)cc(C(=O)NCc3ccccc3C(F)(F)F)c2)n(CC(=O)NCc2ccc(C(=N)N)cc2)c1=O` [Example 128-11] are within 0.2 log units of each other in pIC50: 7.44 for the first, 7.27 for the second.

Compared with `CC(C)NC(=N)c1ccc(CNC(=O)Cn2c(-c3cccc(N)c3)c(Cl)nc(NC3CCC3)c2=O)cc1` [Example 161], `N=C(NCc1ccccc1)c1ccc(CNC(=O)Cn2c(-c3cccc(N)c3)c(Cl)nc(NC3CCC3)c2=O)cc1` [Example 160] is 0.51 log units higher in pIC50: 4.05 for the first, 4.56 for the second.

First: CC(C)Nc1ncc(-c2cc(N)cc(N)c2)n(CC(=O)NCc2ccc(C(=N)N)cc2)c1=O [Example 121]
Second: CC(C)Nc1nc(Br)c(-c2cccc(N)c2)n(CC(=O)NCc2ccc(C(=N)N)cc2)c1=O [Example 124]
The pIC50 of the first is 0.20 log units higher: 7.77 for the first, 7.57 for the second. The first is the more potent here.

`N=C(N)c1ccc(CNC(=O)Cn2c(-c3cccc(C(=N)N)c3)c(Cl)nc(NC3CCC3)c2=O)cc1` [Example 114] and `N=C(N)c1ccc(CNC(=O)Cn2c(-c3ccc(C(=N)N)cc3)c(Cl)nc(NC3CCC3)c2=O)cc1` [Example 113] are within 0.2 log units of each other in pIC50: 7.62 for the first, 7.60 for the second.

Compared with `N=C(NC(=O)OCc1ccccc1)c1ccc(CNC(=O)Cn2c(-c3cccc(N)c3)c(Cl)nc(NC3CCC3)c2=O)cc1` [Example 151], `N=C(N)c1ccc(CNC(=O)Cn2c(-c3ccc(N)cc3)c(Cl)nc(NC3CCC3)c2=O)cc1` [Example 115] is 0.98 log units higher in pIC50: 6.42 for the first, 7.40 for the second.

First: N=C(N)c1ccc(S(=O)(=O)NCCn2c(-c3cccc(N)c3)c(Cl)nc(NC3CCC3)c2=O)cc1 [Example 137]
Second: N=C(N)c1ccc(C(O)CCCn2c(-c3cccc(N)c3)c(Cl)nc(NC3CCC3)c2=O)cc1 (stereo not shown) [Example 143]
The pIC50 of the first is 0.54 log units lower: 5.04 for the first, 5.58 for the second.

`CC(C)Nc1nc(Cl)c(-c2cc(N)cc(C(=O)NC3CCc4ccccc4C3)c2)n(CC(=O)NCc2ccc(C(=N)N)cc2)c1=O` (stereo not shown) [Example 128-24] and `CC(C)Nc1nc(Cl)c(-c2cc(N)cc(C(=O)NCc3ccc4ccccc4c3)c2)n(CC(=O)NCc2ccc(C(=N)N)cc2)c1=O` [Example 128-23] are within 0.2 log units of each other in pIC50: 7.22 for the first, 7.11 for the second.

Going from `CC(C)Nc1nc(Cl)c(-c2cc(N)ccc2SCC(=O)O)n(CC(=O)NCc2ccc(C(=N)N)cc2)c1=O` [Example 110] to `CC(CNc1nc(Cl)c(-c2cccc(N)c2)n(CC(=O)NCc2ccc(C(=N)N)cc2)c1=O)C(=O)O` (stereo not shown) [Example 129], the pIC50 rises from 6.43 to 7.29 (0.86 log units). The second is the more potent here.

In the case of `Nc1cccc(-c2c(Cl)nc(NC3CCC3)c(=O)n2CC(=O)NCc2ccc3[nH]cnc3c2)c1` [Example 146], the pIC50 was 4.67.

Same assay, conditions: 1 h, read-out: % Inhibition Trpysin II (30 µM)

Compared with `N=C(N)c1ccc(NC(=O)Cn2c(-c3cccc(N)c3)c(Cl)nc(NC3CCC3)c2=O)cc1` [Example 141], `Nc1cccc(-c2c(Cl)nc(NC3CCC3)c(=O)n2CC(=O)NCc2ccc(-c3n[nH]c(=O)[nH]3)cc2)c1` [Example 153] is higher in inhibition at 30 µM: 2% for the first, 8% for the second.

Compared with `CC(C)Nc1nc(Cl)c(-c2cccc(N)c2)n(CC(=O)NCc2ccc(C(N)=S)cc2)c1=O` [Example 156], `Nc1cccc(-c2c(Cl)nc(NC3CCC3)c(=O)n2CC(=O)NCc2ccc(-c3noc(=O)[nH]3)cc2)c1` [Example 152] is lower in inhibition at 30 µM: 21% for the first, 15% for the second.

Same assay, conditions: inhibitor at 100 µM

`O=C(Cn1c(Cc2ccccc2)c(Cl)nc(NCCc2ccncc2)c1=O)NCCc1ccncc1` [Example E-0062] and `O=C(Cn1c(-c2ccccc2)c(Cl)nc(NCCc2ccncc2)c1=O)NCCc1ccncc1` [Example E-0014] are the same in “% Inhibition Trpysin II (100 µM)” value: 0% for the first, 0% for the second.

`O=C(Cn1c(-c2ccccc2)c(Cl)nc(NCc2ccncc2)c1=O)NCCc1ccncc1` [Example E-0016] and `COc1ccc(-c2c(Cl)nc(NCc3ccncc3)c(=O)n2CC(=O)NCCc2ccncc2)cc1` [Example E-0040] are the same in “% Inhibition Trpysin II (100 µM)” value: 4% for the first, 4% for the second.

`O=C(Cn1c(Cc2ccccc2)c(Cl)nc(NCc2ccccc2)c1=O)NCCc1ccncc1` [Example E-0057] and `O=C(Cn1c(Cc2ccccc2)c(Cl)nc(NCCc2ccccc2)c1=O)NCCc1ccncc1` [Example E-0058] are the same in “% Inhibition Trpysin II (100 µM)” value: 0% for the first, 0% for the second.

First: O=C(Cn1c(CCc2ccccc2)c(Cl)nc(NCCN2CCOCC2)c1=O)NCCc1ccncc1 [Example E-0071]
Second: COc1ccc(-c2c(Cl)nc(NCCN3CCOCC3)c(=O)n2CC(=O)NCCc2ccncc2)cc1 [Example E-0039]
The “% Inhibition Trpysin II (100 µM)” value of the first is lower: 0% for the first, 2% for the second.

`O=C(Cn1c(-c2ccccc2)c(Cl)nc(NCCc2ccccc2)c1=O)NCCc1ccncc1` [Example E-0010] and `O=C(Cn1c(-c2ccccc2)c(Cl)nc(NCCc2cccc(Cl)c2)c1=O)NCCc1ccncc1` [Example E-0011] are the same in “% Inhibition Trpysin II (100 µM)” value: 0% for the first, 0% for the second.

`O=C(Cn1c(CCc2ccccc2)c(Cl)nc(NCCc2cccc(Cl)c2)c1=O)NCCc1ccncc1` [Example E-0067] and `O=C(Cn1c(Cc2ccccc2)c(Cl)nc(NCCc2cccc(Cl)c2)c1=O)NCCc1ccncc1` [Example E-0059] are the same in “% Inhibition Trpysin II (100 µM)” value: 0% for the first, 0% for the second.

First: COc1ccc(-c2c(Cl)nc(NCc3ccccc3)c(=O)n2CC(=O)NCCc2ccncc2)cc1 [Example E-0033]
Second: COc1ccc(-c2c(Cl)nc(NCc3ccccc3)c(=O)n2CC(=O)NCCc2cccnc2)cc1 [Example E-0098]
The “% Inhibition Trpysin II (100 µM)” value of the first is lower: 5% for the first, 8% for the second.

`Cc1c(Cl)nc(NCCc2ccccc2)c(=O)n1CC(=O)NCCc1ccncc1` [Example E-0002] and `Cc1c(Cl)nc(NCc2ccccc2)c(=O)n1CC(=O)NCCc1ccncc1` [Example E-0001] are the same in “% Inhibition Trpysin II (100 µM)” value: 0% for the first, 0% for the second.

Going from `COc1ccc(-c2c(Cl)nc(NCCc3cccnc3)c(=O)n2CC(=O)NCCc2ccncc2)cc1` [Example E-0037] to `COc1ccc(-c2c(Cl)nc(NCCc3ccncc3)c(=O)n2CC(=O)NCCc2ccncc2)cc1` [Example E-0038], the “% Inhibition Trpysin II (100 µM)” value rises from 2% to 3%.

Compared with `O=C(Cn1c(CCc2ccccc2)c(Cl)nc(NCCc2ccc(Cl)cc2)c1=O)NCCc1ccncc1` [Example E-0068], `O=C(Cn1c(-c2ccc3c(c2)OCO3)c(Cl)nc(NCCc2ccccc2)c1=O)NCCc1ccncc1` [Example E-0042] is higher in “% Inhibition Trpysin II (100 µM)” value: 0% for the first, 5% for the second.

Compared with `O=C(Cn1c(-c2ccc3c(c2)OCO3)c(Cl)nc(NCc2ccncc2)c1=O)NCCc1ccncc1` [Example E-0048], `O=C(Cn1c(-c2ccc3c(c2)OCO3)c(Cl)nc(NCCN2CCOCC2)c1=O)NCCc1ccncc1` [Example E-0047] is higher in “% Inhibition Trpysin II (100 µM)” value: 0% for the first, 2% for the second.

`Cc1c(Cl)nc(NCCc2cccc(Cl)c2)c(=O)n1CC(=O)NCCc1ccncc1` [Example E-0003] and `Cc1c(Cl)nc(NCCc2cccnc2)c(=O)n1CC(=O)NCCc1ccncc1` [Example E-0005] are the same in “% Inhibition Trpysin II (100 µM)” value: 0% for the first, 0% for the second.
